# According to PubChem BioAssay AID588473 (Sanford-Burnham Center for Chemical Genomics, 2011):
# This is a selection; strong and weak results do not stand in their true shares. Some results for these compounds are left out of this collection, so the calls shown say nothing about other tests. Activity calls are given as the source filed them.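 How the source made its calls: active means activation of at least 50%, plus an integration ratio under a set limit after plate pattern correction; inactive means the rest.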
# System: CRF-binding protein / CRF receptor 2 complex (human)
# Assay: agonists of CRF-BP/CRF-R2 complex, primary screen, cell-based, HEK293, calcium dye fluorescence, uHTS (AID 588473);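 further: plate controls were neutral control wells without compound for no effect and CRF at EC100 for full effect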
# Settings: calcium dye fluorescence (FLIPR), at 13.2 µM, active compounds read high, percent of saturating CRF peptide response
row,SMILES,activation
1,C=C(C)C#CC(O)(C(=O)OC1CCN(C)CC1)c1ccccc1 (stereo unspecified),inactive: 3.68%
2,COc1ccc(Br)c(C(=O)NCC2(N3CCCCC3)CCCCC2)c1,inactive: 1.15%
3,O=C(OCCN1CCCC1)C(O)(c1ccccc1)c1ccccc1,inactive: -2.16%
4,CC(C)Oc1ccc(C(=O)NCC2(N(C)C)CCCCC2)cc1,inactive: -0.02%
5,CN(C)c1cccc(C(=O)NCC2(N(C)C)CCCCC2)c1,inactive: 0.54%
6,O=C(OC1CN2CCC1CC2)C(CO)(c1ccccc1)c1ccccc1 (stereo unspecified),inactive: -0.61%
7,COc1ccc(Cl)cc1C(=O)NCC1(N(C)C)CCCCC1,inactive: 1.23%
8,COc1cccc(C(=O)NCC2(N3CCCCC3)CCCCC2)c1,inactive: -2.3%
9,O=C(NCC1(N2CCCCC2)CCCCC1)c1cccc(Cl)c1,inactive: 3.82%
10,CN(C)C1(CNC(=O)c2ccc(Br)cc2)CCCCC1,inactive: 0.58%
11,COc1cc(C(=O)NCC2(N(C)C)CCCCC2)c([N+](=O)[O-])cc1OC,inactive: 0.96%
12,O=C(NCC1(N2CCCCC2)CCCCC1)c1cc(F)c(F)cc1Cl,inactive: -1.6%
13,C=CCN1CCN(CCOC(=O)C(O)(c2ccccc2)c2ccccc2)CC1,inactive: -2.98%
14,COc1ccc(C(=O)NCC2(N(C)C)CCCCC2)cc1,inactive: 0.64%
15,O=C(NCC1(N2CCCCC2)CCCCC1)c1cccc(Br)c1,inactive: -0.26%
16,Cc1cc(C(=O)NCC2(N3CCCCC3)CCCCC2)ccc1[N+](=O)[O-],inactive: 0.11%
17,CCN1CCCC(OC(=O)C2(O)c3ccccc3C=Cc3ccccc32)C1 (stereo unspecified),inactive: 1.34%
18,CN(C)C1CCCC1OC(=O)C(O)(c1ccccc1)c1ccccc1 (stereo unspecified),inactive: 0.65%
19,CN(C)c1ccc(C(=O)NCC2(N(C)C)CCCCC2)cc1,inactive: -2.18%
20,Cc1ccccc1C(=O)NCC1(N2CCCCC2)CCCCC1,inactive: 0.68%
21,COc1cc(SC)ccc1C(=O)NCC1(N(C)C)CCCCC1,inactive: 0.16%
22,CCN(CC)CC(C)C(C)OC(=O)C(O)(c1ccccc1)c1ccccc1 (stereo unspecified),inactive: 0.81%
23,CC(C)N1C(=O)CC2(CCN(CCOC(=O)C(O)(c3ccccc3)c3ccccc3)CC2)C1=O,inactive: 0.07%
24,Cc1ccc(C(=O)NCC2(N3CCCCC3)CCCCC2)cc1,inactive: 1.2%
25,O=C(NCC1(N2CCCCC2)CCCCC1)c1cc([N+](=O)[O-])ccc1Cl,inactive: 2.54%
26,CN1[C@@H]2CC[C@H]1CC(OC(=O)C(O)(c1ccccc1)c1ccccc1)C2 (stereo partly specified),inactive: -2.02%
